Results reported in patent EP3339292A1, “COCRYSTALS OF APREMILAST” (Zaklady Farmaceutyczne Polpharma SA, priority 2016, dated 2018).

Test: Solubility of cocrystal
Format: physicochemical
Details: RT

CCOc1cc([C@@H](CS(C)(=O)=O)N2C(=O)c3cccc(NC(C)=O)c3C2=O)ccc1OC.Cn1c(=O)c2c(ncn2C)n(C)c1=O [APM-CAF, Cocrystal of N-[2-[(1 S)-1-(3-ethoxy-4-methoxyphenyl)-2-(methylsulfonyl)ethyl]-1,3-dioxo-2,3-dihydro-1H-isoindol-4-yl]acetamide and 1,3,7-trimethylpurine-2,6-dione (caffeine)]
Solubility: Solubility: 20.6µg/ml (RT)
